Measurements reported in paper PMC5876388, “The Notch inhibitor cowanin accelerates nicastrin degradation” (Scientific Reports, 2018).

Test system: HPB-ALL cells
Test: Cytotoxicity test, AlamarBlue
Conditions: 10 μM, 72 h
Description: HPB-ALL cells (1 × 10^4 cells per well) were incubated in 96-well black plates at 37 °C for 72 h. Media also contained different concentrations of compound. After incubation, AlamarBlue was added 10 μL per well. After incubation for 4 h, using a fluorescence plate reader, fluorescence was measured and cell viability was determined. Data are presented as the mean with SD from three independent experiments. […] The effect on protein expression was analyzed by Western blotting. β-Actin was used as internal control. (D,E) Relative protein levels of NICD and HES1 analyzed by densitometry. Data are presented as the mean with SD from three independent experiments. *P < 0.05 is considered statistically significant. P values were analyzed by Student’s t test.
HPB-ALL cells (1 × 10^4 cells per well) were incubated in 96-well black plates in 100 μL of RPMI-1640 medium with 10% FBS, Streptomycin (100 μg/mL) and Penicillin (100 unit/mL). Media also contained different concentrations of compound. Cells were incubated at 37 °C for 72 h. After incubation, AlamarBlue (00–025, DAL1025; Thermo Fisher Scientific Inc., Waltham, USA) was added 10 μL per well. After incubation for 4 h, using a fluorescence plate reader (Thermo Fisher Scientific Inc., Waltham, USA), fluorescence was measured and cell viability was determined.

COc1c(O)cc2oc3cc(O)c(CC=C(C)C)c(O)c3c(=O)c2c1C/C=C(\C)CCC=C(C)C [Compound 2, cowanin]
viability of HPB-ALL cells: reduced
